PubChem BioAssay AID602481 (Broad Institute, 2012)
The entries are a selection whose mix differs from that of the whole data set. Some tests of the compounds listed are not included; inactive here does not mean inactive elsewhere. Calls of active or inactive are those of the source. Rule as the data show it: active = inhibition above about 40%; inconclusive = no clear call, values can overlap the other calls; inactive = below that.

These compounds were tested on 7,8-diaminopelargonic acid synthase BioA (Mycobacterium tuberculosis) (assay: M. tuberculosis BioA enzyme inhibitors, primary screen, biochemical, plate reader, single point, HTS (AID 602481)). Details: purified M. tuberculosis BioA enzyme, at 9.99 µM, active compounds read high.

| Compound | inhibition |
| --- | --- |
| CN(C)C1(CNC(=O)c2ccc(Br)cc2)CCCCC1 | inactive: 7.42% |
| COc1cc(C(=O)NCC2(N(C)C)CCCCC2)c([N+](=O)[O-])cc1OC | inactive: -2.46% |
| COc1ccc(Cl)cc1C(=O)NCC1(N(C)C)CCCCC1 | inactive: -0.0785% |
| O=C(NCC1(N2CCCCC2)CCCCC1)c1cccc(Cl)c1 | inactive: 3.97% |
| COc1ccc(Br)c(C(=O)NCC2(N3CCCCC3)CCCCC2)c1 | inactive: -1.97% |
| C=C(C)C#CC(O)(C(=O)OC1CCN(C)CC1)c1ccccc1 (centres undefined) | inactive: -0.751% |
| CN(C)c1cccc(C(=O)NCC2(N(C)C)CCCCC2)c1 | inactive: 0.0665% |
| O=C(OCCN1CCCC1)C(O)(c1ccccc1)c1ccccc1 | inactive: -0.133% |
| CC(C)Oc1ccc(C(=O)NCC2(N(C)C)CCCCC2)cc1 | inactive: -2.14% |
| CN1[C@@H]2CC[C@H]1CC(OC(=O)C(O)(c1ccccc1)c1ccccc1)C2 (some centres undefined) | inactive: -1.1% |
| CC(C)N1C(=O)CC2(CCN(CCOC(=O)C(O)(c3ccccc3)c3ccccc3)CC2)C1=O | inactive: 0.508% |
| COc1cc(SC)ccc1C(=O)NCC1(N(C)C)CCCCC1 | inactive: 0.87% |
| CCN(CC)CC(C)C(C)OC(=O)C(O)(c1ccccc1)c1ccccc1 (centres undefined) | inactive: -1.64% |
| Cc1ccc(C(=O)NCC2(N3CCCCC3)CCCCC2)cc1 | inactive: -1.05% |
| CN(C)c1ccc(C(=O)NCC2(N(C)C)CCCCC2)cc1 | inactive: 1.19% |
| O=C(NCC1(N2CCCCC2)CCCCC1)c1cc(F)c(F)cc1Cl | inactive: 1.25% |
| O=C(NCC1(N2CCCCC2)CCCCC1)c1cccc(Br)c1 | inactive: -0.573% |
| Cc1cc(C(=O)NCC2(N3CCCCC3)CCCCC2)ccc1[N+](=O)[O-] | inactive: -0.811% |
| COc1ccc(C(=O)NCC2(N(C)C)CCCCC2)cc1 | inactive: 2.04% |
